cisplatin tocopherol succinate
solubility in acetone (acetone): soluble
solubility in methanol (methanol): soluble

— patent US20060142593A1, “Platinum compounds” (Sonus Pharmaceuticals, Inc., priority 2002, published 2006)
